# T1: human GLP-1 receptor (CHO cells stably transfected with the human GLP-1 receptor) (human), P43220
# T1 chain: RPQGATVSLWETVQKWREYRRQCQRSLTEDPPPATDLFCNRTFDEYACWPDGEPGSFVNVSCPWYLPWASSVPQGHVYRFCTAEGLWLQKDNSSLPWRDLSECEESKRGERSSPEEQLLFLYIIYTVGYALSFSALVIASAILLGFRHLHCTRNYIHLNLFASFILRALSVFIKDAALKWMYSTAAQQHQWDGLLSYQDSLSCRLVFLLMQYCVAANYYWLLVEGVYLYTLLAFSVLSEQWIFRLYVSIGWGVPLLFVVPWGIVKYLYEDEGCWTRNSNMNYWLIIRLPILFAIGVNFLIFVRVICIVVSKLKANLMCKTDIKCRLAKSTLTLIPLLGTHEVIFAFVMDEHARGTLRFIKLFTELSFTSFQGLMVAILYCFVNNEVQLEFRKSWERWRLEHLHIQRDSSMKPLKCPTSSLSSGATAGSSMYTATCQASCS
# Target: T1, human GLP-1 receptor (CHO cells stably …)
# Experiment: displacement of 125I-GLP-1 from intact CHO/GLP-1R cells (Example 9)
row,Binder,IC50 [nM]
1,HGEGTFTSDVSSYLEGQAAKEFIAWLVKGRPSSGAP (modifications not checked) [GLP-1 Gly8(7-36) Exendin(31-36)],129
2,HGEGTFTSDVSSYLEGQAAKEFIAWLVKGRPSS (modifications not checked) [GLP-1 Gly8(7-36) Exendin(31-33)],34.5
